Amino acid sequences for entries named in this document (tags omitted).
UniProt O95800, whole entry: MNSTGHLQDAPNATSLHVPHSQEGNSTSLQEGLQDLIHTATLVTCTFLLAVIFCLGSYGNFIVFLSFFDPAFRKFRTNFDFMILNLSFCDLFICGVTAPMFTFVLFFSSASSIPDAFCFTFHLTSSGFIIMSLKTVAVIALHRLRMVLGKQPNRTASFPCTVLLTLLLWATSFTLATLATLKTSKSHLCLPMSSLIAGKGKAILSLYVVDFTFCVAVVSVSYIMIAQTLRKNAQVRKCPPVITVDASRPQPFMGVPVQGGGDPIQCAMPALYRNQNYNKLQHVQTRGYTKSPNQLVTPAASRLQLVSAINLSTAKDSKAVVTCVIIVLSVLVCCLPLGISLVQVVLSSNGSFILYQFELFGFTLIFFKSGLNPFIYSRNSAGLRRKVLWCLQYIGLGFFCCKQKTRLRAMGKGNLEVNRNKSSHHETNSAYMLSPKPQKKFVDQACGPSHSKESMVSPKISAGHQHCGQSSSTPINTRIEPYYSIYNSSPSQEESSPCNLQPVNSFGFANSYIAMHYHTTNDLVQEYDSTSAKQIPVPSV

According to patent publication US11690825B2, “20-HETE receptor (GPR75) antagonists and methods of use” (BOARD OF REGENTS, THE UNIVERSITY OF TEXAS SYSTEM, priority 2016, dated 2023):

How the values were obtained:
[1] = target: membrane fractions from EC (Homo sapiens, UniProt O95800); details: displacement of [3H8] 20-HETE
Excerpt: (§1) β-arrestin represents a robust and widely used screening technology for GPCR-ligand pairing. GPCR-mediated β-arrestin recruitment is also recognized as a distinct intracellular signaling pathway, and ligand-receptor interactions may show a bias toward β-arrestin over classical GPCR signaling pathways.

[2] = target: T1, GPR75 (Homo sapiens, UniProt O95800); test: β-arrestin GPCR recruitment assay, GPR75 expressed in CHO cells; format: cell-based; set-up: expressed in transfected cells; host or cells: CHO cells; details: estimated, read-out: EC50 for activation of GPR75
Excerpt: as §1

[3] = target: T1, GPR75; test: GPR75 immunoprecipitation in EC (HMVEC); format: cell-based; set-up: endogenous in cells; host or cells: HMVEC (human microvascular endothelial cells); EA.hy926 lysate is also mentioned
Experimental: Immunoprecipitation of GPR75 in EC further indicated its association with Gαq/11, GIT1 and HIC-5 (FIG. 11a). Incubation of EC with 20-HETE at 10 nM for 5 min increased GPR75-GIT1 association by 2-fold and GPR75-HIC-5 dissociation by 60% (FIGS. 11c and d). No change in GPR75-Gαq/11 association was detected in EC (FIG. 11b).
Immunoprecipitation. […] Western Blot Analysis.

Which results are given for O=C(O)CCC/C=C\C/C=C\C/C=C\C/C=C\CCCCCO [Analog 20-HETE, 20-hydroxyeicosa-5(Z),8(Z),11(Z),14(Z)-tetraenoic acid]?
Kd [1]: 0.00375 µM; EC50 [2]: 19.7 µM; GPR75-Gαq/11 association ([3]; EC): No change; fold induction at 0.01 µM ([3]; HMVEC, 5 min, read-out: increase of GPR75-GIT1 association): 2
